Laboratory results as given in ChEMBL document CHEMBL4340530, “Peptide-based covalent inhibitors of MALT1 paracaspase” (Bioorg Med Chem Lett, 2019).
Active and inactive are the calls of the source. No cut-off for these calls is given here.

Columns and labels:
[1] = molecular target: T1, Mucosa-associated lymphoid tissue lymphoma translocation protein 1 (Homo sapiens) (UniProt Q9UDY8); test: Inhibition of MALT1 in human OCI-LY3 cells assessed as reduction in Relb cleavage at 20 uM by Western blot analysis; assay type: cell-based
T1 sequence (whole entry): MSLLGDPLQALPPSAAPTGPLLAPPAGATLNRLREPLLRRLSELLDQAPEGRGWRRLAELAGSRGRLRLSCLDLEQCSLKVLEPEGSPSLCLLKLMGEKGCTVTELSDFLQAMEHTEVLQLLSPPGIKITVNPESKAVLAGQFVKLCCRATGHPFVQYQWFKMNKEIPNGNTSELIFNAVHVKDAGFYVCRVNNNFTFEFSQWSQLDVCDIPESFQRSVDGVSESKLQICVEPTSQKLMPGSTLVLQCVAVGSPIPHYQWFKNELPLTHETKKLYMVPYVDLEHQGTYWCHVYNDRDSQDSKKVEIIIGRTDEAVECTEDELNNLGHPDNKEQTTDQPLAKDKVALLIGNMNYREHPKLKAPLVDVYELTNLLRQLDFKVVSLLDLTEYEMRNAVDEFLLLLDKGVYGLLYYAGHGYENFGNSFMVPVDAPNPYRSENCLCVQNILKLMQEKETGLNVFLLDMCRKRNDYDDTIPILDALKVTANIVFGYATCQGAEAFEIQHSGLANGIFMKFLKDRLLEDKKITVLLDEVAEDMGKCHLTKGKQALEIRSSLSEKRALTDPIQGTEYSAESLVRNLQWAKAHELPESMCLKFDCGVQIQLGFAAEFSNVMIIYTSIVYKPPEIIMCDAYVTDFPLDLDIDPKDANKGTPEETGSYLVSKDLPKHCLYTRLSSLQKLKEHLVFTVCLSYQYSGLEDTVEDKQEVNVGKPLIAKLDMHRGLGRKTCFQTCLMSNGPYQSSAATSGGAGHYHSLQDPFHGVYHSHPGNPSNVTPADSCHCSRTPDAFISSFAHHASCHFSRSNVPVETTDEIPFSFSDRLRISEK

[2] = molecular target: T1, Mucosa-associated lymphoid tissue lymphoma translocation protein 1 (Homo sapiens); conditions: 1.25 uM

Row | SMILES | inhibition [1] | inhibition [2] [%]
1 | CC(C)[C@H](NC(=O)OCc1ccccc1)C(=O)N[C@@H](CCCNC(=N)N)C(=O)N1CCC[C@H]1C(=O)N[C@@H](CCCNC(=N)N)C(=O)CF | Active | 
2 | CC(C)C[C@H](NC(=O)OCc1ccccc1)C(=O)N[C@H](C(=O)N1CCC[C@H]1C(=O)N[C@@H](CCCNC(=N)N)C(=O)CF)C(C)C |  | 100
